The text below walks through data of PubChem BioAssay (EPA / NIEHS).

Chains of the proteins cited; added tags and fusions are not shown.
UniProt P10275, whole entry: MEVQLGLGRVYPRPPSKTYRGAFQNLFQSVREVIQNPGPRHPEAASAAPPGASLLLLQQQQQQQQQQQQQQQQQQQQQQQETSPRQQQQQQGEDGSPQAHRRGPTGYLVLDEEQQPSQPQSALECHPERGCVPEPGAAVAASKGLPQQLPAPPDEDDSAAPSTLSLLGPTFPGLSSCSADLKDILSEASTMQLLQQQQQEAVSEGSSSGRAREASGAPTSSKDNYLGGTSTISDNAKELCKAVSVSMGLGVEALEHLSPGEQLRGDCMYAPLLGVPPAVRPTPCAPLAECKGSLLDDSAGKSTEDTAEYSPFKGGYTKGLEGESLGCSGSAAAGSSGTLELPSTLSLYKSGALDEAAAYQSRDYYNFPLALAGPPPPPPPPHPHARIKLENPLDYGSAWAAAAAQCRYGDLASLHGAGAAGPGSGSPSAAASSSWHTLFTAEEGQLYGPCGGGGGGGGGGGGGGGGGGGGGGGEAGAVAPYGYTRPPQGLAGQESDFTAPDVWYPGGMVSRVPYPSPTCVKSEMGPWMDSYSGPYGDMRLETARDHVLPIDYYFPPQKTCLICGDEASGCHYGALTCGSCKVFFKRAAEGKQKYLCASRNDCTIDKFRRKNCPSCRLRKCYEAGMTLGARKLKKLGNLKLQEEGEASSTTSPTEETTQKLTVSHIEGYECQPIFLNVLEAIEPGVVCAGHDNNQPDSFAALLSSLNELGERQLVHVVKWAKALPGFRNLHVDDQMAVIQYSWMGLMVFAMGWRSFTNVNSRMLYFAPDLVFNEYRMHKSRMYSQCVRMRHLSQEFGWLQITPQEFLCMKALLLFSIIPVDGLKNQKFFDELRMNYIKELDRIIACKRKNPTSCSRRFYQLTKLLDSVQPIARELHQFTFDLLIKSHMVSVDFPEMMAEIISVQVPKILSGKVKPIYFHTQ

As a reminder, the AC50 is the concentration giving half of the maximal activity seen.

Assay [1] can be described thus: ACEA_ER_AUC_viability: ACEA Biosciences xCELLigence Real-Time Cell Analysis on Estrogen Receptor Agonism for Viability (AID 2283782).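 Further: continuous compound exposure with impedance area under curve over 80 h; hit means loss of impedance signal meaning reduced cell growth or viability.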 As for the experimental part: ACEA_ER is a cell-based, single-readout assay that uses T47D, a human breast cell line, with measurements taken at 80 hours after chemical dosing in a 96-well plate, although TO2 (mc0.srcf) used a 384-well plate. Differences in plate size can be ignored given data normalization.ACEA_ER_AUC_viability is one of two assay component(s) measured or calculated from the ACEA_ER assay. It is designed to make measurements of real-time cell-growth kinetics, a form of growth reporter, as detected with electrical impedance signals by Real-Time Cell Electrode Sensor (RT-CES) technology.Data from the assay component ACEA_ER_AUC_viability was analyzed in the positive analysis fitting direction relative to DMSO as the negative control and baseline of activity. Using a type of growth reporter, loss-of-signal activity can be used to understand changes in the viability. Furthermore, this assay endpoint can be referred to as a secondary readout, because this assay has produced multiple assay endpoints where this one serves a viability function. To generalize the intended target to other relatable targets, this assay endpoint is annotated to the cell cycle intended target family, where the subfamily is cytotoxicity.
The xCELLigence system Multi-E-Plate stations were used to measure the time-dependent response to chemicals. Each compound was tested in an eight-point, 1:4 serial dilution series starting at a maximum final concentration of 100 uM. A maximum starting concentration of 0.5% DMSO was present in the 100 uM chemical samples and was diluted along with the test article dilution series. The screen was performed in biological duplicate using two separate, 96-well, E-Plates 96 for each dilution series (n = 2). Positive controls (MG132 and E2) and a negative control (assay media) were tested in quadruplicate on each testing plate. Then, 0.5% and 0.125% DMSO were tested in duplicates in each plate to serve as solvent controls for the 2 highest concentrations of testing compounds: 100 uM and 25 uM. Reference compounds were tested with 8 concentrations with 1:5 serial dilutions. All screening was carried out by ACEA Biosciences, Inc. (San Diego, CA). T-47D cells purchased from ATCC were maintained in RPMI1640 media supplemented with 10% characterized fetal bovine serum (FBS). Before screening, T-47D cells were preconditioned in assay medium: phenol red-free RPMI1640 supplemented with 10% charcoal-stripped FBS. Cells were then detached and seeded in E-Plates 96 in assay medium. After overnight monitoring of growth once every hour, compounds were added to […] cells and remained in the medium until the end of the experiment. Cellular responses were then recorded once every 5 min for the first 5 h, and once every hour for an additional 100 h.

Assay [2] can be described thus: ACEA_AR_agonist_AUC_viability: ACEA Biosciences xCELLigence Real-Time Cell Analysis on Androgen Receptor Agonism for Viability (AID 2283775). In a few lines: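 Viability endpoint from xCELLigence impedance in 22Rv1 prostate cells at 80 h. Eight-point series, 100 uM maximum final.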
Assay [3] deals with Nucleoli Translocation, AR (gene 367) (UniProt P10275). The assay is described as follows: UPITT_HCI_U2OS_AR_TIF2_Nucleoli_Antagonist: University of Pittsburgh U2OS Androgen Receptor-Transcriptional Intermediary Factor 2 (AR-TIF2) Antagonism High Content Imaging Assay for Nucleoli Translocation (AID 2283997). In a few lines:
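Antagonism is read as loss of nucleolar AR-RFP signal relative to DHT, imaged in U2OS cells also carrying GFP-TIF2. Compounds screened at 20 uM final, 0.2% DMSO; primary actives retested in triplicate.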

A short description of assay [4]: ACEA_AR_antagonist_AUC_viability: ACEA Biosciences xCELLigence Real-Time Cell Analysis on Androgen Receptor Antagonism for Viability (AID 2283776).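 Further: 22Rv1 human prostate cancer cells growing on impedance electrode plates; area under impedance growth curve at 80 h after dosing as viability; hits lower the growth signal relative to DMSO meaning cytotoxicity.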 An outline of the steps: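 22Rv1 prostate cells, continuous dosing up to 100 uM final (0.5% DMSO max), duplicate plates. Growth measured by impedance; AUC at 80 h, loss of signal vs DMSO.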
Assay [5] has as its system Sodium/Iodide Symporter (NIS), SLC5A5 (gene 6528). The assay can be described thus: CPHEA_Stoker_NIS_Inhibition_RAIU: CPHEA's Radioactive Iodide Uptake (RAIU) Assay for Sodium/Iodide Symporter (NIS) Inhibition, Stoker and Laws Labs (AID 2283841). An outline of the steps: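 Iodide uptake through human NIS is measured in an engineered HEK293T line. Cells take up 125I (329pM final) for 2 hours at room temperature alongside chemicals at 0.001–100uM. Retained radioactivity is counted, and the signal is expressed against DMSO controls.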

The nature of assay [6]: CPHEA_Stoker_NIS_Cytotoxicity: Cytotoxicity Assessment for CPHEA's Radioactive Iodide Uptake (RAIU) Assay for Sodium/Iodide Symporter (NIS) Inhibition, Stoker and Laws Labs (AID 2283897). An outline of the steps: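 ATP luminescence (Cell Titer Glo) measured viability, with loss of signal normalized to DMSO controls. Cells: hNIS-HEK293T-EPA, seeded 40 hours prior. Dosing: 0.001–100uM, 2 hours, room temperature, uptake buffer pH 7.4.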

A short description of assay [7]: Tanguay_ZF_120hpf_ActivityScore_legacy: (Legacy) Oregon State University Tanguay Lab 120 Hour Post-fertilization zebrafish Assay Score for Activity (AID 2283742).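 On AC50: dechorionated Tropical 5D wild-type zebrafish embryos held singly per well.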 In a few lines:
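Binary scoring of mortality and morphology by brightfield at 24 and 120 hpf, summarised into one activity score from 18 components relative to DMSO. Wild-type Tropical 5D zebrafish, chorion removed at 4 hpf, static exposure 6–120 hpf, 28 °C.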

For assay [8], the target named is AR (gene 367) (UniProt P10275). The assay is described as follows: ACEA_AR_agonist_80hr: ACEA Biosciences xCELLigence Real-Time Cell Analysis on Androgen Receptor Agonism for Proliferation (AID 2283783).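 Further: hits increase impedance growth signal above DMSO baseline.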 In a few lines: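 Eight concentrations, 1:4 serial dilution from a 100 uM final top, in biological duplicate. Impedance-based real-time growth of 22Rv1 cells after overnight baseline, recorded hourly and read at 80 hours. Controls: testosterone, MG132, assay media.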

Assay [9] deals with AR (gene 367) (UniProt P10275). The assay is described as follows: ACEA_AR_antagonist_80hr: ACEA Biosciences xCELLigence Real-Time Cell Analysis on Androgen Receptor Antagonism for Proliferation (AID 2283787).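 Further: 22Rv1 human prostate cancer cells with growth followed by electrical impedance; hits lower the impedance growth signal relative to DMSO.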 In a few lines:
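Impedance-based real-time growth of 22Rv1 prostate cells, read 80 h after dosing. Eight concentrations, 1:4 series, top 100 uM final (0.5% DMSO), n = 2; signal decrease scored against DMSO.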

Assay [10] in a line: STM_H9_NormalizedViability: Cytotoxicity Assessment at 120 hours in the Stemina devTOX quickPredict H9 human embryonic stem cell (hESC)-based Assay (AID 2283784). As for the experimental part:
STM_H9_viability utilizes undifferentiated H9 cells to measure cell viability.STM_H9_NormalizedViability is a component calculated in the STM_H9_viability assay. It measures cell viability using background corrected relative fluorescence units (RFU) value from the CellTiterFluor Assay normalized to the value of the 0.1% DMSO neutral control treatment (by 96-well plate)Data from the assay component STM_H9_Viability was analyzed at the assay endpoint STM_H9_Viability_Norm in the positive analysis fitting direction relative to DMSO as the negative control and baseline of activity. Using a type of viability reporter, loss-of-signal activity can be used to understand viability.
H9 hESCs maintained in a pluripotent state were exposed to test compound for 72h with chemical replenishment with media replacement every 24h. Cell-conditioned media from the final 24-h treatment period was collected for analysis of the targeted biomarker, and cell viability of the corresponding cell layer was assessed. […] Each test plate included 1uM Methotrexate (MTX; Selleck Chemicals, Houston, Texas) as a positive reference, 5 nM MTX as a negative reference, 0.1% DMSO as the neutral (vehicle) control, and sample-level media blanks.H9 cell-conditioned media from the final 24-h treatment period was collected for analysis of the targeted biomarker and cell viability was measured from the corresponding cell layer. […]

Structures are written as SMILES. The list shows a part of the results, in another mix than the full data. Inconclusive results are not listed. Calls of active or inactive are those of the source. How the source made its calls: active means hit-call score of the fitted dose curve at least 0.9, where 1 is the maximum; inconclusive means response in the unintended direction; inactive means score below 0.9.

On to `N#CBr`, for which the AC50 in [1] was active: 22.5 µM.
With `O=[N+]([O-])OCC(CO[N+](=O)[O-])(CO[N+](=O)[O-])CO[N+](=O)[O-]`, the compound was classed as inactive in assay [2] and in [3].
`COP(C)(=O)OC`: the result in assay [2], in assay [4], in assay [1], in assay [5] and in assay [6] was inactive.
As for `Cc1cccc([N+](=O)[O-])c1[N+](=O)[O-]`, the values for the concentration at half-maximal activity (AC50) (in assay [7]; with AR (gene 367) [8]) were active: 21.5 µM and active: 26.1 µM, respectively. Further, the compound was classed as inactive (with AR (gene 367) [9]; in assay [3]).
`CC(C)OP(C)(=O)OC(C)C`: the call in [7], in assay [2], in assay [4] and in [1] was inactive.
For the compound `CN(C)CCCl`, the AC50 in assay [1] was active: 39.8 µM.
The same measure, in the same setting: the same measure for `Cc1ccc([N+](=O)[O-])c([N+](=O)[O-])c1`: active: 72.6 µM.
With `Cc1ccc([N+](=O)[O-])cc1[N+](=O)[O-]`, the result in assay [7], in assay [4] and in assay [10] was inactive.
Turning to `Cc1c([N+](=O)[O-])cccc1[N+](=O)[O-]`, the result in assay [7], in assay [2] and in assay [4] was inactive.
For `O=[N+]([O-])c1cccc([N+](=O)[O-])c1`, the compound was classed as inactive in assay [7].
